Earlier results in patent US10350231B2, “Use of cladribine for treating autoimmune inflammatory disease” (Chord Therapeutics S.a.r.l., priority 2014, dated 2019).

Test system: NMO patients
Settings: cited from earlier work

B1: interferon beta: cytokine interferon beta, marketed therapy for relapsing MS (protein, UniProt P01574 22-187, looked up)
Interferon beta: MSYNLLGFLQRSSNFQCQKLLWQLNGRLEYCLKDRMNFDIPEEIKQLQQFQKEDAALTIYEMLQNIFAIFRQDSSSTGWNETIVENLLANVYHQINHLKTVLEEKLEKEDFTRGKLMSSLHLKRYYGRILHYLKAKEYSHCAWTIVRVEILRNFYFINRLTGYLRN
  effect on NMO: exacerbate NMO
